Assay results published in ChEMBL document CHEMBL1143172, “Profiling Protein Arginine Deiminase 4 (PAD4): a novel screen to identify PAD4 inhibitors” (Bioorg Med Chem, 2008).

By UniProt entry, the sequences of proteins in these tests, tags left out.
UniProt Q9UM07, whole entry: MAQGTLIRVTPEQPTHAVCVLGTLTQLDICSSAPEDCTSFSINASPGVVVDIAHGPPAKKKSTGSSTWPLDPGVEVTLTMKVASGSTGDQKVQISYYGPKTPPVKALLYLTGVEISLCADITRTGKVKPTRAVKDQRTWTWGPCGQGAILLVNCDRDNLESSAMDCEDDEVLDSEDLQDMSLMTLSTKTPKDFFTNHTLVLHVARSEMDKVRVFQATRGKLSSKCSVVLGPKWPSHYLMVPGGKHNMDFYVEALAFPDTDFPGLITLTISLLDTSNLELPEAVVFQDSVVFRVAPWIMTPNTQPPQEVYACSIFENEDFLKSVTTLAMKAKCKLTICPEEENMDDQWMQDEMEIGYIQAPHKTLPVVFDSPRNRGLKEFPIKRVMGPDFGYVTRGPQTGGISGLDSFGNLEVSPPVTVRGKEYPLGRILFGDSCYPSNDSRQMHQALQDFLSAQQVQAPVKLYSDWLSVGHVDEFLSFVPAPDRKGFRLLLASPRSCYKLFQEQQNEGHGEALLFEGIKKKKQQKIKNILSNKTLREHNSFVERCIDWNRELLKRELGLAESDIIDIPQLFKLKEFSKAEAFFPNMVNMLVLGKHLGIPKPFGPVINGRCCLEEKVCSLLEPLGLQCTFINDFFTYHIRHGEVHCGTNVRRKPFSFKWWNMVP

Target: Protein-arginine deiminase type-4 (Homo sapiens, UniProt Q9UM07)
Assay: Inhibition of PAD4 measured by intercept plot of Lineweaver-Burke analyses

**Q.** Which Ki does the source give for C[C@H]1c2cccc(O)c2C(=O)C2=C(O)C3(O)C(=O)C(C(N)=O)=C(O)[C@@H](N(C)C)[C@@H]3[C@@H](O)[C@@H]21 (single isomer, unassigned) [DOXYCYCLINE] here?
**A.** 630 µM
